Biological target: HDAC3:SMRT (Homo sapiens, UniProt O15379+Q9Y618)
Assay: Fluorescence anisotropy direct binding of 2-FAM-Ins(1,3,4,5,6)P5

Protein sequences, listed by entry. Tags and fused reporters are not part of them. Lines headed by an entry give the natural chain unless they say otherwise; changes in a name come on top. Residues count along the entry.
UniProt O15379: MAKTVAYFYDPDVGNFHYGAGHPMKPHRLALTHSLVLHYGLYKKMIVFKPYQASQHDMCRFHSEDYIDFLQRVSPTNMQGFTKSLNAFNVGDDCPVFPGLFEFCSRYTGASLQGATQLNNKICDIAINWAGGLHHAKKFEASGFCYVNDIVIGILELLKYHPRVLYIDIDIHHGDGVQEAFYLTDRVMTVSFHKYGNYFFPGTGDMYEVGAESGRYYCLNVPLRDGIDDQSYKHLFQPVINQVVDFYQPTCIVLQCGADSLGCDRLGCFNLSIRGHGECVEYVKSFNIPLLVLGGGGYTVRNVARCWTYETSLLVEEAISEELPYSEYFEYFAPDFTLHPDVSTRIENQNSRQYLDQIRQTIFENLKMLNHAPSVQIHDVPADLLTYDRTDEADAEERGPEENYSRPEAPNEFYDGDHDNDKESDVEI
UniProt Q9Y618, 350-480: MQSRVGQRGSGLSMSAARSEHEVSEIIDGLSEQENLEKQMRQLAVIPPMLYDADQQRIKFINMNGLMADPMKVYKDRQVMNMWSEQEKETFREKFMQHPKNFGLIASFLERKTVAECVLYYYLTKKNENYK

enhancement of the binding of 2-FAM-Ins(1,3,4,5,6)P5 to the allosteric site by inhibitor: threefold enhancement
SMILES: O=C(CCCCCCC(=O)Nc1ccccc1)NO [SAHA]
